What was measured:
[1] = Stability in simulated gastric fluid (SGF); format: in vitro ADME; conditions: pepsin, pH=2, 37° C., 20 μM peptide
Protocol: Studies were carried out in simulated intestinal fluid (SIF) and simulated gastric fluid (SGF) to evaluate gastric stability of the peptide inhibitors of the present invention. In addition, studies were carried out to assess redox stability of the peptide inhibitors of the present invention.
SGF was prepared by adding 20 mg NaCl, 32 mg porcine pepsin (MP Biochemicals, catalog 02102599), and 700 HCl to 10 ml water (final pH=2). Aliquots of SGF (0.5 ml each) were pre-warmed at 37° C. To start the reaction, 1 μl of peptide stock solution (10 mM in DMSO) was added to 0.5 ml SGF and thoroughly mixed such that the final peptide concentration was 20 μM. The reactions were incubated at 37° C. with gentle shaking. At each time point (0, 15, 30, 60 min) 50 μl aliquots were removed and added to 200 ul acetonitrile containing 0.1% formic acid to quench the reaction. Samples are stored at 4° C. until the end of the experiment and centrifuged at 10,000 rpm for 5 minutes. Aliquots of the supernatant were removed, diluted 1:1 into distilled water containing internal standard, and analyzed by LCMS/MS. Percent remaining at each timepoint was calculated based on the peak area response ratio of test to compound to internal standard. Time 0 was set to 100%, and all later timepoints were calculated relative to time 0. Half-lives were calculated by fitting to a first-order exponential decay equation using GraphPad.

Protein sequences, listed by entry. Tags and fused reporters are not part of them. Residues count along the entry.
UniProt Q5VWK5, 24-629 limits assumed: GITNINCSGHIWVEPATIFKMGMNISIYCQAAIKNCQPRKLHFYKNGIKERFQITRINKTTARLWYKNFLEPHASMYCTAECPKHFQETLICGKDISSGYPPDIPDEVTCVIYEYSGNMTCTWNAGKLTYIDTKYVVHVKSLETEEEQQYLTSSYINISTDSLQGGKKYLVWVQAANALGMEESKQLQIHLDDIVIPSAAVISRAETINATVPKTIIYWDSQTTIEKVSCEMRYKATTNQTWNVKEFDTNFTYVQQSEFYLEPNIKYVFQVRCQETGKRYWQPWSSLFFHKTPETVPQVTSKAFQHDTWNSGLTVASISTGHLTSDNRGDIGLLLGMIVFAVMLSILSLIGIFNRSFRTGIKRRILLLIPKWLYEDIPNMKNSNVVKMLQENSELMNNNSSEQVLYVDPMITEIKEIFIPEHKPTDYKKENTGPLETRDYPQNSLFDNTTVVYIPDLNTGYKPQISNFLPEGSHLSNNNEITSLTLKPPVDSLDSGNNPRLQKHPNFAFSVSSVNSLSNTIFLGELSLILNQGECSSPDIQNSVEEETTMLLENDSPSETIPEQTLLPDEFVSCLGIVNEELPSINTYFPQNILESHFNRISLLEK

[2] = Stability in simulated intestinal fluid (SIF); format: in vitro ADME; conditions: 100 fold dilution of standard SIF concentration, 37° C., 20 μM
Method in brief: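 Peptides at 20 μM final were incubated at 37 °C in SIF (potassium phosphate with pancreatin, pH 6.8), and reactions were quenched with acetonitrile/1% formic acid at time points from 0 min to 24 h. Percent remaining relative to time 0 was determined by LC-MS/MS against an internal standard, and half-life came from a first-order decay fit.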

[3] = Stability in rat plasma; format: in vitro ADME; conditions: SD rat plasma, 37° C., 20 μM
[4] = Stability in human fecal homogenate; format: in vitro ADME; conditions: 20% human fecal homogenate, 37° C., 20 μM
[5] = molecular target: IL-23 induced IFNγ in natural killer (NK) cells (Homo sapiens, UniProt Q5VWK5); test: NK cell based assay (IL-23/IL-18 induced IFNγ); conditions: IL-23 at EC50 to EC75 and IL-18 10 ng/mL, IFNγ in supernatant after 20 to 24 hours
From the text: Example 3: NK Cell Based Assay

[6] = Stability in cynomolgus monkey fecal homogenate; format: in vitro ADME; conditions: 20% cynomolgus monkey fecal homogenate, 37° C., 20 μM

Substance: Ac-[Abu]-Q-T-[W(7-Ph)]-Q-[Cys]-Phe[4-(2-aminoethoxy)]-[2-Nal]-[THP]-E-N-[3Pal]-[Sarc]-NH2 [Peptide 134]
- SGF t½ [1]: >24.0 h
- SIF t½ [2]: >24.0 h
- t½: Rat Plasma EDTA [3]: >24.0 h

Substance: Ac-[Abu]-Q-T-[W(7-Ph)]-Q-[Cys]-Phe[4-(2-aminoethoxy)]-[2-Nal]-[a-MeLys]-[Lys(Ac)]-N-[3Pal]-[Sarc]-NH2 [Peptide 135]
- SGF t½ [1]: >24.0 h
- SIF t½ [2]: 11.7 h
- t½: Rat Plasma EDTA [3]: >24.0 h

Substance: Ac-[Pen]-N-T-[W(7-(2-Nal))]-[Lys(Ac)]-[Pen]-Phe[4-(2-aminoethoxy)]-[2-Nal]-[THP]-E-N-H-[Sarc]-NH2 [Peptide 67]
- t½: Human Feces anaerobic [4]: >24.0 h
- SGF t½ [1]: >24.0 h
- IC50 [5]: 0.771 nM
- SIF t½ [2]: >24.0 h
- t½: Monkey Feces anaerobic [6]: >24.0 h
- t½: Rat Plasma EDTA [3]: >24.0 h

Substance: Ac-[Pen]-N-T-[W(7-Me)]-[Lys(Ac)]-[Pen]-Phe[4-(2-aminoethoxy)]-[2-Nal]-[THP]-E-N-H-P-NH2 [Peptide 66]
- t½: Human Feces anaerobic [4]: 4 h
- SGF t½ [1]: >24.0 h
- IC50 [5]: 0.878 nM
- SIF t½ [2]: 21.8 h
- t½: Monkey Feces anaerobic [6]: 4.7 h
- t½: Rat Plasma EDTA [3]: >24.0 h

Substance: Ac-[Pen]-N-T-[W(7-Me)]-[Lys(Ac)]-[Pen]-Phe[4-(2-aminoethoxy)]-[2-Nal]-[THP]-E-S-H-[Sarc]-NH2 [Peptide 54]
- t½: Human Feces anaerobic [4]: 9.4 h
- SGF t½ [1]: >24.0 h
- IC50 [5]: 1.64 nM
- SIF t½ [2]: >24.0 h
- t½: Monkey Feces anaerobic [6]: 14.5 h
- t½: Rat Plasma EDTA [3]: >24.0 h

Substance: Ac-[Pen]-N-T-[W(7-Me)]-[Lys(Ac)]-[Pen]-Phe[4-(2-aminoethoxy)]-[2-Nal]-[a-MeLys]-[Lys(Ac)]-N-[3Pal]-NH2 [Peptide 80]
- t½: Human Feces anaerobic [4]: >18.1 h
- SGF t½ [1]: >24.0 h
- IC50 [5]: 0.0515 nM
- SIF t½ [2]: 0.1 h
- t½: Monkey Feces anaerobic [6]: 14.8 h
- t½: Rat Plasma EDTA [3]: >24.0 h

Substance: Ac-[Pen]-N-T-[W(7-Me)]-[Lys(Ac)]-[Pen]-Phe[4-(2-aminoethoxy)]-[2-Nal]-[a-MeLys]-[Lys(Ac)]-N-[3Pal]-[Sarc]-NH2 [Peptide 103]
- t½: Human Feces anaerobic [4]: >24.0 h
- SGF t½ [1]: >24.0 h
- IC50 [5]: 0.0277 nM
- SIF t½ [2]: >24.0 h
- t½: Monkey Feces anaerobic [6]: >24.0 h
- t½: Rat Plasma EDTA [3]: >24.0 h

Substance: Ac-[Pen]-N-T-[W(7-Me)]-[Lys(bAla)]-[Pen]-Phe[4-(2-aminoethoxy)]-[2-Nal]-[THP]-E-N-H-[Sarc]-NH2 [Peptide 30]
- t½: Human Feces anaerobic [4]: 7.7 h
- SGF t½ [1]: >24.0 h
- IC50 [5]: 0.896 nM
- SIF t½ [2]: >24.0 h
- t½: Monkey Feces anaerobic [6]: 9.6 h
- t½: Rat Plasma EDTA [3]: >24.0 h

Substance: Ac-[Pen]-N-T-[W(7-imidazopyridinyl)]-[Lys(Ac)]-[Pen]-Phe[4-(2-aminoethoxy)]-[2-Nal]-[THP]-E-N-[3Pal]-[Sarc]-NH2 [Peptide 144]
- t½: Human Feces anaerobic [4]: >24.0 h
- SGF t½ [1]: >24.0 h
- SIF t½ [2]: >24.0 h
- t½: Monkey Feces anaerobic [6]: >24.0 h
- t½: Rat Plasma EDTA [3]: >24.0 h

Substance: Ac-[Pen]-N-T-[W(7-pyrimidin-5-yl)]-[Lys(Ac)]-[Pen]-Phe[4-(2-aminoethoxy)]-[2-Nal]-[THP]-E-N-[3Pal]-[Sarc]-NH2 [Peptide 143]
- t½: Human Feces anaerobic [4]: >24.0 h
- SGF t½ [1]: >24.0 h
- SIF t½ [2]: >24.0 h
- t½: Monkey Feces anaerobic [6]: >24.0 h
- t½: Rat Plasma EDTA [3]: >24.0 h

Substance: Ac-[Pen]-S-T-[W(7-Ph)]-[Lys(Ac)]-[Pen]-Phe[4-(2-aminoethoxy)]-[2-Nal]-[THP]-E-N-H-[Sarc]-NH2 [Peptide 60]
- t½: Human Feces anaerobic [4]: >24.0 h
- SGF t½ [1]: >24.0 h
- IC50 [5]: 0.973 nM
- SIF t½ [2]: >24.0 h
- t½: Monkey Feces anaerobic [6]: 21.4 h
- t½: Rat Plasma EDTA [3]: >24.0 h
